Literature values, collected in publication PMC6151961 (Journal of Enzyme Inhibition and Medicinal Chemistry, 2018).
pKi: −log10 of the molar value.

Target: CA IX (Homo sapiens, UniProt Q16790)
Conditions: cited from earlier work

For `CC(=O)OC[C@H]1O[C@H](S(=O)(=O)NCCOS(N)(=O)=O)[C@@H](OC(C)=O)[C@H](OC(C)=O)[C@H]1OC(C)=O` [B0678], the pKi is given as 6.67.

In the case of `CC(=O)OC[C@H]1O[C@H](S(=O)(=O)N2CCC(OS(N)(=O)=O)CC2)[C@@H](OC(C)=O)[C@H](OC(C)=O)[C@H]1OC(C)=O` [B0014], the pKi is given as 8.70.
